The record followed here is patent US10882867B2, “Forms and compositions of a MK2 inhibitor” (Celgene CAR LLC, priority 2017, dated 2021).

By UniProt entry, the sequences of proteins in these tests, tags left out.
UniProt P49137, whole entry: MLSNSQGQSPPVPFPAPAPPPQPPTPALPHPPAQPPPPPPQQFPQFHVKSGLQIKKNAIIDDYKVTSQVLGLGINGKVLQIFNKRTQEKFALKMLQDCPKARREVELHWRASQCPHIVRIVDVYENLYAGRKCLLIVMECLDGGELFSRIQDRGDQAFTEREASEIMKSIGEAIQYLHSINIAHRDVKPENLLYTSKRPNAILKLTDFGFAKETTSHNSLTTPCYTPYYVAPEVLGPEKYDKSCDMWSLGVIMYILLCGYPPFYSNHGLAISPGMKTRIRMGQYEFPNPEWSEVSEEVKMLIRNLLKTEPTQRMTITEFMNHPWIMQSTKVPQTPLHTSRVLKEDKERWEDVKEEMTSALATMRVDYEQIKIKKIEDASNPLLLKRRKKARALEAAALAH

Entries after “also recorded” stand apart in the source; their conditions may differ.

Data set [1] in a line: Form conversion (form transfer) experiments: slurry, compression, heating, humidity cycle. It counts as physicochemical. Particulars: conclusion from form transfer, heat and humidity stress experiments. As for the experimental part:
Form conversion experiments were performed to determine interconversion among solid forms.
The schematic inter-conversion among crystalline forms of Compound 1 is depicted in FIG. 48.
The stability of Form A was further characterized by compression test and form transfer experiments (Table 6). Upon application of 2000-psi pressure for about 1 minute, the material was still Form A, with broader diffraction peaks (FIG. 42(c)).

The target in data set [2] is T1, MK2 (Homo sapiens, UniProt P49137). Particulars: Thp-1 human acute monocytic leukemia cells.
The target of data set [3] is T1, MK2. Particulars: enzymatic and cellular assays.

For the molecule `CCOCc1cnc(Cl)nc1Oc1ccc2c(ccc3sc4c(c32)NC[C@@H](C)NC4=O)n1` [Form B, (R)-3-((2-chloro-5-(ethoxymethyl)pyrimidin-4-yl)oxy)-10-methyl-9,10,11,12-tetrahydro-8H-[1,4]diazepino[5′,6′:4,5]thieno[3,2-f]quinolin-8-one], the “Relative stability of the crystalline form” value (“Relative stability” below) in data set [1] is on record as “metastable anhydrate”.
For the molecule `CCOCc1cnc(Cl)nc1Oc1ccc2c(ccc3sc4c(c32)NC[C@@H](C)NC4=O)n1` [Compound 1, (R)-3-((2-chloro-5-(ethoxymethyl)pyrimidin-4-yl)oxy)-10-methyl-9,10,11,12-tetrahydro-8H-[1,4]diazepino[5′,6′:4,5]thieno[3,2-f]quinolin-8-one], on MK2 [2], the “Inhibition of MK2” value is recorded as “inhibit”. Also, the “Inhibition of MK2 kinase” value at MK2 [3] is listed as “covalent, irreversible inhibition”.
As to `CCOCc1cnc(Cl)nc1Oc1ccc2c(ccc3sc4c(c32)NC[C@@H](C)NC4=O)n1` [Form C, (R)-3-((2-chloro-5-(ethoxymethyl)pyrimidin-4-yl)oxy)-10-methyl-9,10,11,12-tetrahydro-8H-[1,4]diazepino[5′,6′:4,5]thieno[3,2-f]quinolin-8-one], the “Relative stability” value in data set [1] is “metastable hydrate”.
As to `CCOCc1cnc(Cl)nc1Oc1ccc2c(ccc3sc4c(c32)NC[C@@H](C)NC4=O)n1` [Form D, (R)-3-((2-chloro-5-(ethoxymethyl)pyrimidin-4-yl)oxy)-10-methyl-9,10,11,12-tetrahydro-8H-[1,4]diazepino[5′,6′:4,5]thieno[3,2-f]quinolin-8-one], the “Relative stability” value in data set [1] is “metastable anhydrate”.
Take `CCOCc1cnc(Cl)nc1Oc1ccc2c(ccc3sc4c(c32)NC[C@@H](C)NC4=O)n1` [Form A, (R)-3-((2-chloro-5-(ethoxymethyl)pyrimidin-4-yl)oxy)-10-methyl-9,10,11,12-tetrahydro-8H-[1,4]diazepino[5′,6′:4,5]thieno[3,2-f]quinolin-8-one]: in data set [1], the “Relative stability” value is reported as “most stable anhydrate form; also recorded: most stable anhydrous form”.
